The nature of this test: Selectivity index, ratio of EC50 for VZV 3CV-1 by plaque neutralization over IC50 for human Hep2 cells. In kind it is functional, HEp-2.

The source of these data is ChEMBL document CHEMBL1150874, “Antiviral phenylpropanoid glycosides from the medicinal plant Markhamia lutea” (J Nat Prod, 1998).

For the compound `Nc1nc2c(ncn2COC(CO)CO)c(=O)[nH]1` [GANCICLOVIR], the “Ratio IC50/EC50” value is 74.
